Experimental data: ChEMBL document CHEMBL1142715, “Discovery of new tetracyclic tetrahydrofuran derivatives as potential broad-spectrum psychotropic agents” (J Med Chem, 2005)

By UniProt entry, the sequences of proteins in these tests, tags left out.
UniProt P18901, whole entry: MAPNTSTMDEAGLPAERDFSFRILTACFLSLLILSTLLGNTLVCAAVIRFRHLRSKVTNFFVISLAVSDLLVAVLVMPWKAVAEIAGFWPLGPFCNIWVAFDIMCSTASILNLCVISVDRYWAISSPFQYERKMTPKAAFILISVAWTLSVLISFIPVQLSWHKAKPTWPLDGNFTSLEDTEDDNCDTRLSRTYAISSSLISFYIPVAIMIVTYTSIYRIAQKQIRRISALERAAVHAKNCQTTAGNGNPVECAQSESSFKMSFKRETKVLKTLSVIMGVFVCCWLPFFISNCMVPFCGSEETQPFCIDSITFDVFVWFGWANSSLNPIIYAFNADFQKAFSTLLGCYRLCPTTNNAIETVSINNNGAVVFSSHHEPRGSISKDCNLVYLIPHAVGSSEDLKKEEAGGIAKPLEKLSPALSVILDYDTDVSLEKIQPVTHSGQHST

Target: D(1A) dopamine receptor (Rattus norvegicus, UniProt P18901)

Compound: Cc1nc2n(c(=O)c1CCN1CCC(c3noc4cc(F)ccc34)CC1)CCCC2 [RISPERIDONE]
- Ki: 147 nM
